Literature values, collected in patent US20110091574A1, “TREATMENT OF ADENOCARCINOMA EXPRESSING LKB1 WITH MTOR INHIBITOR IN COMBINATION WITH COX2 INHIBITOR” (Catholic Healthcare West, priority 2008, published 2011).

Test system: COX-2 and COX-1 enzymes
Conditions: cited from earlier work

Cc1onc(-c2ccccc2)c1-c1ccc(S(N)(=O)=O)cc1 [valdecoxib]
potency at inhibiting COX-2 relative to COX-1: about 300 times
